# Measured values from ChEMBL document CHEMBL1156789, “Design and synthesis of 5,5'-disubstituted aminohydantoins as potent and selective human beta-secretase (BACE1) inhibitors” (J Med Chem, 2010).
# Molecular target: T1, Beta-secretase 2 (Homo sapiens, UniProt Q9Y5Z0)
# T1 sequence (Q9Y5Z0 whole entry): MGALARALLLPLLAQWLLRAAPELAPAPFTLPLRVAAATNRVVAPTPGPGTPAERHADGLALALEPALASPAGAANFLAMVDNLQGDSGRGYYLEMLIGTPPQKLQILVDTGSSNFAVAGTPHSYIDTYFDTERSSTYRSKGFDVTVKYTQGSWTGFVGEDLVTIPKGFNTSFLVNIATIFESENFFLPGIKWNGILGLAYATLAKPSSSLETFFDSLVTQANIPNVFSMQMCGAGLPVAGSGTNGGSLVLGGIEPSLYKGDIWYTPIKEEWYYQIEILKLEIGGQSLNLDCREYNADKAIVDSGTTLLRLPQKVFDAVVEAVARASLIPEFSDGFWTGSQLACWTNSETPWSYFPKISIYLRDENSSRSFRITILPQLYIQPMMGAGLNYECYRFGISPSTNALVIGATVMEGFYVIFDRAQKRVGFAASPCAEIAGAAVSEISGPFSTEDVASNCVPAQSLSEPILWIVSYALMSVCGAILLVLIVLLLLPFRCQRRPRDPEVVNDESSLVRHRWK
# Assay: Inhibition of human BACE2 by FRET based peptide cleavage assay
row,IC50,Compound
1,4170 nM,COc1ccc(C2(c3cccc(-c4cccnc4)c3)N=C(N)N(C)C2=O)cc1OC (configuration not stated)
2,780 nM,COc1ccc(C2(c3cccc(-c4cccnc4)c3)N=C(N)N(C)C2=O)cc1C (configuration not stated)
